HCMV NEC inh: inhibitors of HCMV UL50-UL53 interaction, biochemical, HTRF | AID 1918969, 2023 | hit rate 0.15% among 190,000 | normalized percent inhibition | inhibition, % (concentration not given with the values) | HCMV UL50-UL53 nuclear egress complex (human cytomegalovirus); in the data active = inhibition above about 27%, passing the limit was not always enough
GIV-Gai inh: inhibitors of GIV GBA-motif binding to rat Galpha-i3; P08753; Galpha-i3/FITC-GIV peptide fluorescence polarization, 90 min; hits give low values; scaled: aluminum fluoride 0%, vehicle 100%; percent of control (FP), % (no concentration beside the values); hit rate 0.42% among 210,000; AID 1224905;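 active = replicate mean at 85% of control or lower, very high polarization wells dropped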;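 note: wells of about 15 µL received 100 nL stock; the first replicate is given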
GIV-Gai FP conf: inhibitors of GIV peptide binding to Galpha-i3, confirmation, biochemical, fluorescence polarization, FITC-GIV peptide, rat Galphai3 | fluorescence polarization, mP at 100 µM | shares compounds with GIV-Gai inh | stronger effect = lower value | hit rate 38% among 580;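 active = inhibition score of 15 or more, meaning 100 minus mean polarization as percent of control over three replicates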
GIV Gai AS conf: inhibitors of GIV binding to Galpha-i3, confirmation, orthogonal assay for GIV-Galpha-i inhibitor project, biochemical, AlphaScreen, His-GIV, GST-Galphai3. AlphaScreen counts at 100 µM. purified proteins, 90 min; stronger effect = lower value. shares compounds with GIV-Gai inh. AID 1259351, 2017. hit rate 39% among 580;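 active = inhibition score at or above a set limit, where the score is 100 minus the three-replicate mean percent of control signal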
An asterisk follows results filed as active. This is a sample that favours compounds with a hit; in the whole collection about 0.46% have one here.

`CN(c1ccc(Br)cc1)S(=O)(=O)c1ccc2[nH]cc(C(=O)NCc3ccccn3)c(=O)c2c1` gave GIV-Gai inh 64*, GIV-Gai FP conf 48* and GIV Gai AS conf 60749.
`O=C(OCCN1C(=O)c2ccccc2C1=O)C1CCCCN1S(=O)(=O)c1ccccc1` (stereo unspecified) gave HCMV NEC inh -29.
Screening Cc1ccc2nc(NC(=O)c3ccc(F)cc3)sc2c1 returned HCMV NEC inh -4.
Screening O=C(CC1SC(=O)NC1=O)Nc1cccc(NC(=O)CC2SC(=O)NC2=O)c1 (stereo unspecified) returned HCMV NEC inh -31, GIV-Gai inh 76*, GIV-Gai FP conf 62* and GIV Gai AS conf 9767*.
For O=C(CC1SC(=O)NC1=O)Nc1ccc(O)cc1 (stereo unspecified) the results were HCMV NEC inh -14 and GIV-Gai inh 103.
O=C(CCS(=O)(=O)c1ccccc1)N1CCc2ccccc21 was read as HCMV NEC inh -30 and GIV-Gai inh 106.
For CN(C)S(=O)(=O)c1ccc2c(c1)nc(C(F)(F)F)n2CCC(=O)Nc1ccc(Cl)cc1 the results were HCMV NEC inh -5 and GIV-Gai inh 103.
Screening N#Cc1c(N)nc(SCc2ccc(F)cc2)c(C#N)c1-c1cccs1 returned GIV-Gai inh 105.
For O=C(Cn1c(=O)c2ccccc2n2c(=S)sc(-c3ccc(Br)cc3)c12)N1CCCC1 the results were HCMV NEC inh -19 and GIV-Gai inh 94.
`O=C(Cn1c(=O)c2ccccc2n2c(=S)sc(-c3ccccc3)c12)NCC1CCCO1` (stereo unspecified) gave HCMV NEC inh -16, GIV-Gai inh 78*, GIV-Gai FP conf 72 and GIV Gai AS conf 23082.
Screening CCN(CC)C(=O)Cn1c(=O)c2ccccc2n2c(=S)sc(-c3ccccc3F)c12 returned HCMV NEC inh -41 and GIV-Gai inh 121.
Screening CCN(CC)C(=O)Cn1c(=O)c2ccccc2n2c(=S)sc(-c3ccc(Br)cc3)c12 returned HCMV NEC inh -29, GIV-Gai inh 100, GIV-Gai FP conf 94 and GIV Gai AS conf 27284.
Screening COc1cc(OC)c(NS(=O)(=O)c2c(C)nc3sc4ccccc4n3c2=O)cc1Cl returned HCMV NEC inh -32 and GIV-Gai inh 103.
O=C(CC1CCN(C(=O)C2CCCCC2)CC1)NCCN1CCCCC1 was read as HCMV NEC inh -33 and GIV-Gai inh 98.
Screening Cc1ccn2c(=O)cc(COc3cccc(NC(=O)Nc4cccc(Cl)c4C)c3)nc2c1 returned GIV-Gai inh 88, GIV-Gai FP conf 75 and GIV Gai AS conf 35234.
Cc1ccn2c(=O)cc(COc3ccc(NC(=O)Nc4ccc(Cl)cc4)cc3)nc2c1 was read as GIV-Gai inh 82*, GIV-Gai FP conf 76 and GIV Gai AS conf 24165.
Screening Cc1ccn2c(=O)cc(COc3ccc(NC(=O)Nc4cccc(Cl)c4)cc3)nc2c1 returned GIV-Gai inh 108.
Screening Cc1c(Cl)cccc1NC(=O)Nc1cccc(OCc2cc(=O)n3ccccc3n2)c1 returned GIV-Gai inh 99.
COc1ccc(CNC(=O)CN2C(=O)C(C)=C(c3ccc(C)c(C)c3)S2(=O)=O)cc1OC was read as HCMV NEC inh -44 and GIV-Gai inh 102.
C=CCn1nnc(NCc2ccc(-c3cccc(Cl)c3C)o2)n1 was read as HCMV NEC inh -11 and GIV-Gai inh 100.
CCN(CC)C(=O)/C=C/c1ccc2c(c1)OCO2 was read as GIV-Gai inh 102.
Screening CC(C)(O)C(=O)/C=C/c1ccc2c(c1)OCO2 returned HCMV NEC inh -4, GIV-Gai inh 84*, GIV-Gai FP conf 69 and GIV Gai AS conf 27857*.
Cc1cc2c(NC(=O)COCC(=O)O)cccc2nn1 was read as HCMV NEC inh -28, GIV-Gai inh 73*, GIV-Gai FP conf 55* and GIV Gai AS conf 16084*.
Screening Cc1cc2c(NC(=O)CC(C)(C)CC(=O)O)cccc2nn1 returned HCMV NEC inh -37 and GIV-Gai inh 98.

Pulled one by one from the list above, 2 records:
Screening CCN(CC)C(=O)Cn1c(=O)c2ccccc2n2c(=S)sc(-c3ccccc3F)c12 returned HCMV NEC inh -41 and GIV-Gai inh 121.
Screening CC(C)(O)C(=O)/C=C/c1ccc2c(c1)OCO2 returned HCMV NEC inh -4, GIV-Gai inh 84*, GIV-Gai FP conf 69 and GIV Gai AS conf 27857*.

New compounds follow:
CCc1nn(CC(=O)Nc2ccc(N(CC)CC)cc2C)c(=O)c2cc3sccc3n12 was read as HCMV NEC inh -4 and GIV-Gai inh 107.
Screening COc1ccccc1CC(=O)N1CCN(c2cccc3[nH]ccc23)CC1 returned HCMV NEC inh -11 and GIV-Gai inh 108.
For CC(=O)N1CC(C)=C(C#N)C1O (stereo unspecified) the results were HCMV NEC inh 2, GIV-Gai inh 73*, GIV-Gai FP conf 48* and GIV Gai AS conf 19185*.
CC(=O)N1CN(C(C)=O)C(O)C1O (stereo unspecified) was read as HCMV NEC inh 4 and GIV-Gai inh 103.
For CC(O)CNc1c[nH]c(=O)[nH]c1=O (stereo unspecified) the results were HCMV NEC inh -21 and GIV-Gai inh 100.
O=c1[nH]cc(NCCO)c(=O)[nH]1 was read as HCMV NEC inh -7, GIV-Gai inh 66*, GIV-Gai FP conf 44* and GIV Gai AS conf 47941.
For COC(=O)c1ccc2nsnc2c1 the results were GIV-Gai inh 86, GIV-Gai FP conf 65 and GIV Gai AS conf 37884.
`CCOC(=O)c1ccc2nsnc2c1` gave HCMV NEC inh -69 and GIV-Gai inh 101.
CCOc1cc(C2Nc3ccc(C(=O)c4ccccc4)cc3NC3=C2C(=O)CC(C)(C)C3)ccc1O (stereo unspecified) was read as HCMV NEC inh -44 and GIV-Gai inh 105.
Screening Cc1ccc(COc2ccc(Br)cc2C=C2C(=O)NC(=S)NC2=O)cc1 returned HCMV NEC inh 8 and GIV-Gai inh 100.
For O=C1NC(=O)C(=Cc2cc(Br)ccc2OCc2ccc(Cl)cc2)C(=O)N1 the results were HCMV NEC inh 50*, GIV-Gai inh 78*, GIV-Gai FP conf 62 and GIV Gai AS conf 39620.
`CN1CCCN(c2ccc(NS(=O)(=O)c3ccc(F)cc3)c(C(=O)O)c2)CC1` gave HCMV NEC inh -18 and GIV-Gai inh 103.

An excerpt from above in order of number of heavy atoms, lowest first:
O=C(CCS(=O)(=O)c1ccccc1)N1CCc2ccccc21 was read as HCMV NEC inh -30 and GIV-Gai inh 106.
Screening COc1cc(OC)c(NS(=O)(=O)c2c(C)nc3sc4ccccc4n3c2=O)cc1Cl returned HCMV NEC inh -32 and GIV-Gai inh 103.
For CN(C)S(=O)(=O)c1ccc2c(c1)nc(C(F)(F)F)n2CCC(=O)Nc1ccc(Cl)cc1 the results were HCMV NEC inh -5 and GIV-Gai inh 103.

(more compounds)
Cc1ccc(-c2ccc(OC(F)F)cc2)cc1 was read as HCMV NEC inh -13.
For O=C(O)c1cnn2c(C(F)(F)F)cc(-c3ccc(F)cc3)nc12 the results were HCMV NEC inh -101 and GIV-Gai inh 107.
CCOc1cc(/C=N/NC(=O)c2nnn(-c3nonc3N)c2CN2CCCCCC2)ccc1O was read as GIV-Gai inh 111.
For CCc1ccc2nc(N(Cc3cccnc3)C(=O)Cc3ccccc3)sc2c1 the results were GIV-Gai inh 37*, GIV-Gai FP conf 77 and GIV Gai AS conf 33433.
COc1ccc2nc(N(Cc3cccnc3)C(=O)Cc3ccccc3)sc2c1 was read as GIV-Gai inh 112.
